This test addresses human CTLA4 expressed on Jurkat T cells (human) (UniProt P16410). In words: cell-based or functional assay.

In the case of anti-hCTLA4 antibody 10D1 (ipilimumab), the IC50, luciferase (RLU), CTLA4 Dual-Cell Reporter Assay (Jurkat cells with hCTLA4 plus Raji cells) turned out to be 5.19 nM; the IC50, luciferase reporter assay (Jurkat cells with CTLA4 plus Raji cells with hCD80 and hCD86) was determined as 11.6 nM.
